{
  "source": "patent US10150760B2",
  "about": "“Compounds for use in preparing heterocyclic triazole agonists of the APJ receptor” (AMGEN INC., priority 2016, dated 2018)",
  "origin": "cited, not measured here",
  "conditions": "cited from earlier work",
  "data": [
    {"substance": "Apelin-13", "values": [
      {"measurement": "plasma half-life", "result": "< 5", "unit": "min"}
    ]}
  ]
}
